US9358250B2, “Methods of using SCD1 antagonists” (Genentech, Inc., priority 2011, dated 2016)

Amino acid sequences for entries named in this document (tags omitted).
UniProt O00767, whole entry: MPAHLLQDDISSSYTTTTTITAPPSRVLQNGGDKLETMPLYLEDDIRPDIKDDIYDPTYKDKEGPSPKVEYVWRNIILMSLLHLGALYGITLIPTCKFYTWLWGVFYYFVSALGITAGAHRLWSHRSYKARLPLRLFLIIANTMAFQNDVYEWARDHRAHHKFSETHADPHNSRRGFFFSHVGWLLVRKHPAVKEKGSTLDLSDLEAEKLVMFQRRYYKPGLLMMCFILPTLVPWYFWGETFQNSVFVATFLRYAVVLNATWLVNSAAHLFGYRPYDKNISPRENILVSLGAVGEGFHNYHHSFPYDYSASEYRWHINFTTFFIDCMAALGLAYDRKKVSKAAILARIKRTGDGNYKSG
UniProt P07308, whole entry: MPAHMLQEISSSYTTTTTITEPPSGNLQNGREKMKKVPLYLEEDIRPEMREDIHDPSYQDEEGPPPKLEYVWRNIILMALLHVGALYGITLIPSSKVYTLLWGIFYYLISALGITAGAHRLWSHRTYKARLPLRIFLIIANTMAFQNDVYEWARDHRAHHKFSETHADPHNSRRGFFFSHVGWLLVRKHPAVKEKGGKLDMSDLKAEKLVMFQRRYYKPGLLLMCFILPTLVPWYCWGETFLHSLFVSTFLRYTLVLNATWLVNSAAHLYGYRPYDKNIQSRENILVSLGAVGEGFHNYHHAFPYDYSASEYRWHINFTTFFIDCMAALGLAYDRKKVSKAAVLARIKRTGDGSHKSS

Key:
4031.A = assay: Cell viability, CellTiter-Glo; conditions: read-out: Cell Titer IC50, RCC cancer cell line, 72 hr
769P = assay: Cell viability, CellTiter-Glo; conditions: read-out: Cell Titer IC50, RCC cancer cell line, 72 hr
786.O-VHL = assay: Cell viability, CellTiter-Glo; conditions: read-out: Cell Titer IC50, RCC cancer cell line, 72 hr
786.O = assay: Cell viability, CellTiter-Glo; conditions: read-out: Cell Titer IC50, RCC cancer cell line, 72 hr
ACHN = assay: Cell viability, CellTiter-Glo; conditions: read-out: Cell Titer IC50, RCC cancer cell line, 72 hr
AsPC-1 = assay: Cell viability, CellTiter-Glo; conditions: AsPC-1, pancreatic cancer cell line, 72 hr
BFTC909 = assay: Cell viability, CellTiter-Glo; conditions: read-out: Cell Titer IC50; BFTC909, RCC cancer cell line, 72 hr
BTFC905 = assay: Cell viability, CellTiter-Glo; conditions: read-out: Cell Titer IC50; BTFC905, bladder cancer cell line, 72 hr
BxPC-3 = assay: Cell viability, CellTiter-Glo; conditions: read-out: Cell Titer IC50; BxPC-3, pancreatic cancer cell line, 72 hr
CFPAC-1 = assay: Cell viability, CellTiter-Glo; conditions: read-out: Cell Titer IC50; CFPAC-1, pancreatic cancer cell line, 72 hr
CL-11 = assay: Cell viability, CellTiter-Glo; conditions: CL-11, colon cancer cell line, 72 hr
Caki 1 = assay: Cell viability, CellTiter-Glo; conditions: Caki 1, RCC cancer cell line, 72 hr
Caki 2 = assay: Cell viability, CellTiter-Glo; conditions: Caki 2, RCC cancer cell line, 72 hr
Cal 54 = assay: Cell viability, CellTiter-Glo; conditions: Cal 54, RCC cancer cell line, 72 hr
Capan-1 = assay: Cell viability, CellTiter-Glo; conditions: read-out: Cell Titer IC50; Capan-1, pancreatic cancer cell line, 72 hr
Capan-2 = assay: Cell viability, CellTiter-Glo; conditions: Capan-2, pancreatic cancer cell line, 72 hr
Colo205 = assay: Cell viability, CellTiter-Glo; conditions: read-out: Cell Titer IC50; Colo205, colon cancer cell line, 72 hr
DLD1 = assay: Cell viability, CellTiter-Glo; conditions: read-out: Cell Titer IC50; DLD1, colon cancer cell line, 72 hr
Du145 = assay: Cell viability, CellTiter-Glo; conditions: read-out: Cell Titer IC50; Du145, prostate cell line, 72 hr
G402 = assay: Cell viability, CellTiter-Glo; conditions: read-out: Cell Titer IC50; G402, RCC cancer cell line, 72 hr
HCT-15 = assay: Cell viability, CellTiter-Glo; conditions: read-out: Cell Titer IC50; HCT-15, colon cancer cell line, 72 hr
HCT116 = assay: Cell viability, CellTiter-Glo; conditions: read-out: Cell Titer IC50; HCT116, colon cancer cell line, 72 hr
HM7 = assay: Cell viability, CellTiter-Glo; conditions: read-out: Cell Titer IC50; HM7, colon cancer cell line, 72 hr
HPAC = assay: Cell viability, CellTiter-Glo; conditions: read-out: Cell Titer IC50, pancreatic cancer cell line, 72 hr
HPAF-II = assay: Cell viability, CellTiter-Glo; conditions: read-out: Cell Titer IC50, pancreatic cancer cell line, 72 hr
HT29 = assay: Cell viability, CellTiter-Glo; conditions: read-out: Cell Titer IC50; HT29, colon cancer cell line, 72 hr
HT55 = assay: Cell viability, CellTiter-Glo; conditions: read-out: Cell Titer IC50; HT55, colon cancer cell line, 72 hr
Hs 766T = assay: Cell viability, CellTiter-Glo; conditions: pancreatic cancer cell line, 72 hr
KP4 X1.1 = assay: Cell viability, CellTiter-Glo; conditions: read-out: Cell Titer IC50; KP4 X1.1, pancreatic cancer cell line, 72 hr
LNCap/Ner = assay: Cell viability, CellTiter-Glo; conditions: prostate cell line, 72 hr
LS 180 = assay: Cell viability, CellTiter-Glo; conditions: read-out: Cell Titer IC50; LS 180, colon cancer cell line, 72 hr
LS174T = assay: Cell viability, CellTiter-Glo; conditions: read-out: Cell Titer IC50, colon cancer cell line, 72 hr
LoVo = assay: Cell viability, CellTiter-Glo; conditions: read-out: Cell Titer IC50, colon cancer cell line, 72 hr
MIA PaCa-2 = assay: Cell viability, CellTiter-Glo; conditions: read-out: Cell Titer IC50; MIA PaCa-2, pancreatic cancer cell line, 72 hr
PANC-1 = assay: Cell viability, CellTiter-Glo; conditions: read-out: Cell Titer IC50; PANC-1, pancreatic cancer cell line, 72 hr
PC-3 = assay: Cell viability, CellTiter-Glo; conditions: PC-3, prostate cell line, 72 hr
RKO = assay: Cell viability, CellTiter-Glo; conditions: read-out: Cell Titer IC50, colon cancer cell line, 72 hr
SW1990 = assay: Cell viability, CellTiter-Glo; conditions: SW1990, pancreatic cancer cell line, 72 hr
SW620 = assay: Cell viability, CellTiter-Glo; conditions: read-out: Cell Titer IC50; SW620, colon cancer cell line, 72 hr
SW780 = assay: Cell viability, CellTiter-Glo
UMUC-14 = assay: Cell viability, CellTiter-Glo
DLD1 tumors = assay: Xenograft tumor growth; conditions: DLD1, colon, orally twice a day
UMUC-14 tumors = assay: Xenograft tumor growth
fatty acid desaturation = assay: Fatty acid desaturation in tumor tissues, mouse liver and plasma (gas chromatography); conditions: 75 mg/kg twice a day, 2 hr after last treatment
SCD1 = SCD1 (Homo sapiens, UniProt O00767); assay: SCD1 activity assay in cells
[1] = tested on: AKT phosphorylation, caspases 3 and 7, PARP; assay: Western blot of UMUC-14 cell lysates; format: cell-based, human; conditions: UMUC-14 cells, 20 hr
colon cancer cell lines = assay: Caspase-Glo 3/7 assay; conditions: colon cancer cells, 48 hr
kidney cancer cell lines = assay: Caspase-Glo 3/7 assay; conditions: kidney cancer cells, 48 hr
[2] = tested on: pancreatic cancer cell lines; assay: Caspase-Glo 3/7 assay; conditions: pancreatic cancer cells, 48 hr
[3] = tested on: human cancer cell lines, including colon, prostate, pancreatic, and bladder cancers; assay: Cell viability, CellTiter-Glo, panel; conditions: panel of human cancer cell lines, 72 hr
[4] = tested on: multiple bladder cancer cell lines; assay: Proliferation and apoptosis in culture; conditions: data not shown
rat SCD1 = rat SCD1 (Rattus norvegicus, UniProt P07308); conditions: cited from earlier work

CNC(=O)c1cccc(NC(=O)N2CCC(Oc3ccccc3Cl)CC2)c1
IC50 (4031.A): 12.7 nM
IC50 (769P): 77.6 nM
IC50 (786.O-VHL): 32 nM
IC50 (786.O): 32.4 nM
IC50 (ACHN): 15.8 nM
Cell Titer IC50 (AsPC-1): Resistant
Maximum Inhibition (AsPC-1): None
IC50 (BFTC909): 767 nM
IC50 (BTFC905): 12.6 nM
IC50 (BxPC-3): 30.9 nM
IC50 (CFPAC-1): 14.9 nM
Cell Titer IC50 (CL-11): Resistant
Cell Titer IC50 (Caki 1): Resistant
Cell Titer IC50 (Caki 2): Resistant
Cell Titer IC50 (Cal 54): Resistant
IC50 (Capan-1): 10.3 nM
Cell Titer IC50 (Capan-2): Resistant
Maximum Inhibition (Capan-2): None
IC50 (Colo205): 20.4 nM
IC50 (DLD1): 4.6 nM
IC50 (Du145): 7.1 nM
IC50 (G402): 690 nM
IC50 (HCT-15): 6.9 nM
IC50 (HCT116): 41.5 nM
IC50 (HM7): 35.3 nM
IC50 (HPAC): 40.5 nM
IC50 (HPAF-II): 48.3 nM
IC50 (HT29): 4.1 nM
IC50 (HT55): 18.3 nM
Cell Titer IC50 (Hs 766T): Resistant
IC50 (KP4 X1.1): 6 nM
Cell Titer IC50 (LNCap/Ner): Resistant
Maximum Inhibition (LNCap/Ner): None
IC50 (LS 180): 18.8 nM
IC50 (LS174T): 31.3 nM
IC50 (LoVo): 6.3 nM
IC50 (MIA PaCa-2): 12.8 nM
IC50 (PANC-1): 21.8 nM
Cell Titer IC50 (PC-3): Resistant
Maximum Inhibition (PC-3): None
IC50 (RKO): 7.3 nM
Cell Titer IC50 (SW1990): Resistant
Maximum Inhibition (SW1990): None
IC50 (SW620): 11.7 nM
effect of oleate on inhibition of viability (SW780; SW780, 1% FBS, 100 nM, 48 hr): oleate rescues SW780 cells
effect of palmitate on inhibition of viability (SW780; SW780, 1% FBS, 100 nM, 48 hr): unable to reverse the effect
IC50 (SW780; read-out: Cell Titer IC50, SW780, bladder cancer cell line, 72 hr): 12.5 nM
effect of exogenously supplemented oleate on growth inhibition (UMUC-14; 100 nM, UMUC-14 cells): reversed the growth inhibitory effect in a dose-dependent fashion
effect of palmitate on growth inhibition (UMUC-14; 100 nM, UMUC-14 cells): failed to rescue the cells
reduction of viability (UMUC-14; 100 nM, UMUC-14 cells): approximately 85%
IC50 (UMUC-14; read-out: Cell Titer IC50, UMUC-14, bladder cancer cell line, 72 hr): 14.4 nM
Max % TGI, PO (DLD1 tumors): No effect
suppression of tumor growth compared with vehicle control (UMUC-14 tumors; 75 mg/kg twice a day, day 20, athymic nude mice): about 60%
Max % TGI, PO (UMUC-14 tumors; UMUC-14, bladder, orally twice a day): 77%
weight loss or other gross abnormalities (UMUC-14 tumors; nude mice, course of the experiments): no significant weight loss or other gross abnormalities
fatty acid desaturation in mouse liver and plasma (fatty acid desaturation): significantly reduced
ratio of monounsaturated fatty acid to saturated fatty acid in tumor lysates (fatty acid desaturation): markedly decreased
conversion of [^14C]stearic acid into oleic acid (SCD1; data not shown): blocked the conversion of [^14C]stearic acid into oleic acid
IC50 (SCD1; read-out: IC50, synthesis of monounsaturated fatty acid from [^14C]acetate, UMUC-14 cells, estimated): 30 nM
effector caspases 3 and 7 and their target PARP [1]: cleavage and activation of effector caspases 3 and 7
phosphorylated AKT [1]: reduction of phosphorylated AKT
caspases 3/7 activity (colon cancer cell lines): activates caspases 3/7
caspases 3/7 activity (kidney cancer cell lines): activates caspases 3/7
caspases 3/7 activity [2]: activates caspases 3/7
cell viability [3]: reduces cell viability
apoptosis ([4]; in culture): induced apoptosis
proliferation ([4]; normal growth condition): suppressed proliferation
IC50 (rat SCD1): 7.8 nM
